The chains behind the UniProt entries cited, without tags or fusion partners. Residues count along the entry.
UniProt P08253, 110-660 limits assumed: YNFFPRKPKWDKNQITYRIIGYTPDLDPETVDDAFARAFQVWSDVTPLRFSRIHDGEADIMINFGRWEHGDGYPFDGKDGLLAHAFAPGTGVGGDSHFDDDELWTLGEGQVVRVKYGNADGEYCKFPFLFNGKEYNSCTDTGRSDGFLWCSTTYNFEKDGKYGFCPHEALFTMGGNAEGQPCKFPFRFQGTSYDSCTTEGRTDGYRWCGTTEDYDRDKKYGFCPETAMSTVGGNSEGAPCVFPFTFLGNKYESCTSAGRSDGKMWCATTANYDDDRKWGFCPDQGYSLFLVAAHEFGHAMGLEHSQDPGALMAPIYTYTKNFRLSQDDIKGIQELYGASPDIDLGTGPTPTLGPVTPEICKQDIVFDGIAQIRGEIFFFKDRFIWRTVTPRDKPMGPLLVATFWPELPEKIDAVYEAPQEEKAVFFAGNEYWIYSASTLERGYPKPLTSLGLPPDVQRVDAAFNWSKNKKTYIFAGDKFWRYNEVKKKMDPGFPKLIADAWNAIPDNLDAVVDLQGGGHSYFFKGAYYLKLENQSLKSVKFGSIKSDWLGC

According to patent US20060084688A1, “Aromatic sulfone hydroxamic acid metalloprotease inhibitor” (priority 1997, published 2006):

How the values were obtained:
recombinant human MMP-2 = recombinant human MMP-2 (Homo sapiens, UniProt P08253); details: read-out: MMP-2 IC50; Inhibition Table B
recombinant human MMP-13 = recombinant human MMP-13 (Homo sapiens, UniProt P45452); assay: In vitro metalloprotease inhibition, fluorogenic MCA peptide substrate, MMP-13; assay type: biochemical; details: read-out: MMP-13 IC50; Inhibition Table B

Row | SMILES | IC50 (recombinant human MMP-2) | IC50 (recombinant human MMP-13)
1 | O=C(NO)C1(S(=O)(=O)c2ccc(Oc3ccc(Cl)cc3)cc2)CCOCC1 [Example 100, 4-[[4-(4-chlorophenoxy)-phenyl]sulfonyl]-tetrahydro-N-hydroxy-2H-pyran-4-carboxamide] | < 0.1 nM | 
2 | O=C(NO)C1(S(=O)(=O)c2ccc(Oc3ccc(OC(F)(F)F)cc3)cc2)CCOCC1 [Example 69] | < 0.1 nM | < 0.1 nM
